Molecular target: Integrin alpha-IIb/beta-3 (Homo sapiens, UniProt P08514+P05106)
Assay: Inhibition of ADP-induced platelet aggregation in human platelet-rich plasma
Procedure, shortened: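 Human blood drawn into 3.8% sodium citrate (9:1); PRP from 180g spin, 12 min, 22 °C; count adjusted to 3 × 10^8/mL with PPP. PRP preincubated with test sample 5 min at 37 °C in aggregometer, then ADP 17.2 µM final. Inhibition from transmittance change at 5 min versus no-sample maximum; 12-14 concentrations over ~200-fold range; IC50 by four-parameter fit; n ≥ 3.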

By UniProt entry, the sequences of proteins in these tests, tags left out. Residues count along the entry.
UniProt P08514, 32-887 limits assumed: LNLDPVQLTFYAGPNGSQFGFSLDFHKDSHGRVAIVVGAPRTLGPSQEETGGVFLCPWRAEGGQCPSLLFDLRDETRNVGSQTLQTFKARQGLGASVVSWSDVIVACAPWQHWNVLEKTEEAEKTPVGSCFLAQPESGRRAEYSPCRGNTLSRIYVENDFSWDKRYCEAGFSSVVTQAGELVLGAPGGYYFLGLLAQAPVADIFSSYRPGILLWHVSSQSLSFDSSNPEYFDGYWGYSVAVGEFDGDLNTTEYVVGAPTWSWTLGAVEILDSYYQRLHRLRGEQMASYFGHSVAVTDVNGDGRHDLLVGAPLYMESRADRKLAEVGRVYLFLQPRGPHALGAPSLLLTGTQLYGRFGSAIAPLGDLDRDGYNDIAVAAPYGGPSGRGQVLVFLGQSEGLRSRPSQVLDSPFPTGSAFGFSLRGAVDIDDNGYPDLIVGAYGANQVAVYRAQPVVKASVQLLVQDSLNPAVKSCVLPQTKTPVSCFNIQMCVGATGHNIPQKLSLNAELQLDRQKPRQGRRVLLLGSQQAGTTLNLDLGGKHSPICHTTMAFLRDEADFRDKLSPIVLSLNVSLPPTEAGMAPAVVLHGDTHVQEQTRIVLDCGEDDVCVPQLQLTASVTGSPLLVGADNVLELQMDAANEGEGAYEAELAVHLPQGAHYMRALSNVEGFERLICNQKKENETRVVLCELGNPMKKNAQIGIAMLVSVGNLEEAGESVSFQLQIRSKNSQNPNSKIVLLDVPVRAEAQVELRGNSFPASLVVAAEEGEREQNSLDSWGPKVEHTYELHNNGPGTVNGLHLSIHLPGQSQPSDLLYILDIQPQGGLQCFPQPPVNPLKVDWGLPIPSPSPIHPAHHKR
UniProt P08514, 891-1039 limits assumed: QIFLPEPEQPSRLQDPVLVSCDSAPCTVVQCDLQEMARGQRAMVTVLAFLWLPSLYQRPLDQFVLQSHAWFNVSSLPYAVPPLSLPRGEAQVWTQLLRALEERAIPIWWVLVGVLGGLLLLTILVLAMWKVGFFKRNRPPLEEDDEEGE
UniProt P05106, 27-788 limits assumed: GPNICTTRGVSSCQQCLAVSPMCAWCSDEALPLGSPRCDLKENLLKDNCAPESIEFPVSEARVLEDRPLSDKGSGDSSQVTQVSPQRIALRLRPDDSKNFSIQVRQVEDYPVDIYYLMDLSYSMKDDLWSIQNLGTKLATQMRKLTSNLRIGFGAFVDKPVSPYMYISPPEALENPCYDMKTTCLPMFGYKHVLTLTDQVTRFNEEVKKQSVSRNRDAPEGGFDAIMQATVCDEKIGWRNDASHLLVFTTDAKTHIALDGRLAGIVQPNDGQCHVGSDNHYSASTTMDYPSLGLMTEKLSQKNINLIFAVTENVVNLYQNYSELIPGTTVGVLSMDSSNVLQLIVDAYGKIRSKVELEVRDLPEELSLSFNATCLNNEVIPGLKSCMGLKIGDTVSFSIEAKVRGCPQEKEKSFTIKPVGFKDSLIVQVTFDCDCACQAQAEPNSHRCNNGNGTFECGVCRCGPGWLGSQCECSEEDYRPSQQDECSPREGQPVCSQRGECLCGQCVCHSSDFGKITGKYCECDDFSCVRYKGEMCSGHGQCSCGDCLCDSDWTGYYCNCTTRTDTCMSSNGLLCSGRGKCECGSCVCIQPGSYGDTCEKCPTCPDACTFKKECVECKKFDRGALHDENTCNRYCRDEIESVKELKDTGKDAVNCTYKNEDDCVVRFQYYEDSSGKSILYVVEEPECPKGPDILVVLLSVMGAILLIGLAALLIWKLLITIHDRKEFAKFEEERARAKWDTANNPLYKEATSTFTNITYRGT

Row | IC50 [µM] | SMILES
1 | 20 | N=C(N)NCCC[C@H](NC(=O)CN)C(=O)NCC(=O)N[C@@H](CC(=O)O)C(=O)N[C@@H](Cc1ccccc1)C(=O)O
2 | 160 | N=C(N)NCCC[C@H](NC(=O)CN)C(=O)NCC(=O)N[C@@H](CC(=O)O)C(=O)N[C@@H](CO)C(=O)O

Source: BindingDB's records for doi:10.1021/jm00089a014 (Genentech, 1992)
